Experiments:
CSF1R autoinhibited = CSF1R autoinhibited (Homo sapiens, UniProt P07333); experiment: biochemical
Method: (§1) DiscoverX® KINOMEscan™ In Vitro Kinase Competition Binding Assay
(§2) Compound activity (% binding) is monitored by measuring the amount of kinase captured in test versus control samples by using a qPCR method that detects the associated DNA label. The binding activity is converted to % inhibition and an IC50 value is determined for CSF-1R fold-selectivity assessment.
(§3) Assays to monitor binding to a 468-kinase panel are conducted at DiscoverX® Corporation (Fremont, CA). Test compound is provided as a 10 mM stock in 100% DMSO and evaluated at […] final concentrations. Kinases are tagged with DNA for qPCR detection. Streptavidin-coated magnetic beads are treated with biotinylated small molecule ligands for 30 minutes at room temperature to generate affinity resins for kinase assays. The liganded beads are blocked with excess biotin and washed with blocking buffer (Pierce SeaBlock, 1% BSA, 0.05% Tween 20 and 1 mM DTT) to remove unbound ligand and to reduce nonspecific binding. […] Test compound is prepared as a 40×stock in 100% DMSO and directly diluted into the assay. […] The kinase concentration in the eluates is measured by qPCR. […]
(§4) The percent inhibition values, and the 3-point concentration response data are subsequently determined and analyzed with NGR software, and non-standard IC50 values are calculated from the resulting curve fit. […]

Chains of the proteins cited; added tags and fusions are not shown. Residues count along the entry.
UniProt P07333, 538-972 limits assumed: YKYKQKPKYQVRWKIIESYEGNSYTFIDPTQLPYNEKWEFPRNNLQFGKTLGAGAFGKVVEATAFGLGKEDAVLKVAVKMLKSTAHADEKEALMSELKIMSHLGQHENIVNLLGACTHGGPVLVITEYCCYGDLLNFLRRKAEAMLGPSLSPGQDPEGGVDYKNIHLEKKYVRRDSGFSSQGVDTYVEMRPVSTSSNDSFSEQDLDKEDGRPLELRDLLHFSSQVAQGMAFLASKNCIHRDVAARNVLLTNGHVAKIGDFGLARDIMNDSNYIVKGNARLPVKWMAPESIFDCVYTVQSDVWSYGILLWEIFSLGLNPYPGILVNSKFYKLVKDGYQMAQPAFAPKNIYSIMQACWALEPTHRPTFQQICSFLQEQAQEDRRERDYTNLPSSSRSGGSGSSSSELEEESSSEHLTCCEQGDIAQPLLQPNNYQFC
UniProt P07333, 20-972: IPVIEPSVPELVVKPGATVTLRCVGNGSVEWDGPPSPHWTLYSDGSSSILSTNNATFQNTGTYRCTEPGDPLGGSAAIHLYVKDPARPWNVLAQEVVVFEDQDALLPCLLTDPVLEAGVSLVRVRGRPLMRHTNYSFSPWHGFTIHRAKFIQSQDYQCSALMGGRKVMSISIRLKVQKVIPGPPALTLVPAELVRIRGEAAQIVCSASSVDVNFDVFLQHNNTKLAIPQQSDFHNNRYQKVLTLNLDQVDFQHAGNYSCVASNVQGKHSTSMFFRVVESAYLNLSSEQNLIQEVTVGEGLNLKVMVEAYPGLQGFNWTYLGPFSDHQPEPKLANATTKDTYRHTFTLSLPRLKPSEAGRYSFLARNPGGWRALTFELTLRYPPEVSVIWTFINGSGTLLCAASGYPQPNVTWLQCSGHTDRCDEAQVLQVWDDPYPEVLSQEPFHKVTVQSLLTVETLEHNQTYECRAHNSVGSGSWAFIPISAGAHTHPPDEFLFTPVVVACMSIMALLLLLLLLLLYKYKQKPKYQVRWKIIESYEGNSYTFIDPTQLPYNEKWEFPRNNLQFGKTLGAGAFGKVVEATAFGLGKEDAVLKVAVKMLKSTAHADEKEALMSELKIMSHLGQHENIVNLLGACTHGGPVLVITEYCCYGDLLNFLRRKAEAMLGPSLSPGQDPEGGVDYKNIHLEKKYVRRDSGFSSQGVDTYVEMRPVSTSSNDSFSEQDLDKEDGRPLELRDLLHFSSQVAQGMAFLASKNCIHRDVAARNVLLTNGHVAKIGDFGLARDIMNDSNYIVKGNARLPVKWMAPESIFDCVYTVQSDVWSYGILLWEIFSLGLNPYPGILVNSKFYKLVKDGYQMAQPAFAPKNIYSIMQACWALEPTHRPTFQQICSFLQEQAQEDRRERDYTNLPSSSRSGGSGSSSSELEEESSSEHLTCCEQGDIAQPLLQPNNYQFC

CSF1R = CSF1R (Homo sapiens, UniProt P07333); experiment: biochemical
Method: as §1, §2, §3, §4

**Q.** `COc1ccc(COc2ncc(Cc3ccnc(-c4cnn(C)c4)n3)cc2OC)nc1` [Example 1, 4-({5-Methoxy-6-[(5-methoxypyridin-2-yl)methoxy]pyridin-3-yl}methyl)-2-(1-methyl-1H-pyrazol-4-yl)pyrimidine] was tested. Which inhibition at 2 µM (CSF1R autoinhibited) did it give?
**A.** The inhibition at 2 µM was 98.9%.

**Q.** And the inhibition at 2 µM (CSF1R)?
**A.** Its inhibition at 2 µM is 99%.

Source: patent US12577229B2, “Substituted {5-methoxy-6-[(5-methoxypyridin-2-yl)methoxy]pyridin-3-yl} methyl compounds as CSF-1R inhibitors” (Eli Lilly and Company, priority 2020, dated 2026)
